Values of other authors in article PMC8278521.

By UniProt entry, the sequences of proteins in these tests, tags left out. Residues count along the entry.
UniProt P19235, 25-250: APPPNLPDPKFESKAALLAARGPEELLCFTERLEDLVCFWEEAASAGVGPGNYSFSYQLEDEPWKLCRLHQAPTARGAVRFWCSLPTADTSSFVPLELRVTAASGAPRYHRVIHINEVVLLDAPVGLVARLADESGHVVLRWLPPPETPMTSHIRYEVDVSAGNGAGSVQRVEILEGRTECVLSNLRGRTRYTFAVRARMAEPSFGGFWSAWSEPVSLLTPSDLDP

Target: EPOR homodimer (Homo sapiens) (UniProt P19235)

Kd: 0.15 nM
Substance: EPO (from UniProt P01588)
